The target of assay [1] is Recombinant human Syk (amino acids 342-635) (Homo sapiens (Human), UniProt P43405). In words: Syk Kinase Test (Kinase Glo luminescence). The settings on record: comparison compounds, Example numbers of WO 2013/014060; read-out: IC50 in μM (SYK-Inhibition). Format: biochemical. Here is the method:
The output file of the reader is a csv file that contains the well number and measured relative light units (RLU). For data evaluation and calculation, the measurement of the negative control was set as 100% ctrl and the measurement of the positive control was set as 0% ctrl. Based on this values the % value for the measurement of each substance concentration was calculated using an Assay Explorer software (Accelrys). Normally, the % ctrl values calculated are between 0% and 100% values but may also occur outside these limits in individual cases based on variability or compound characteristics. The IC50 values were calculated from the % ctrl values using Assay Explorer software. Calculation: [y=(a−d)/(1+(x/c)^b)+d] a=low value, d=high value; x=conc M; c=IC50 M; b=hill; y=% ctrl.
Background: Kinase-Glo reads ATP consumption through a luciferase reaction.

By UniProt entry, the sequences of proteins in these tests, tags left out. Residues count along the entry.
UniProt P36888, 564-958: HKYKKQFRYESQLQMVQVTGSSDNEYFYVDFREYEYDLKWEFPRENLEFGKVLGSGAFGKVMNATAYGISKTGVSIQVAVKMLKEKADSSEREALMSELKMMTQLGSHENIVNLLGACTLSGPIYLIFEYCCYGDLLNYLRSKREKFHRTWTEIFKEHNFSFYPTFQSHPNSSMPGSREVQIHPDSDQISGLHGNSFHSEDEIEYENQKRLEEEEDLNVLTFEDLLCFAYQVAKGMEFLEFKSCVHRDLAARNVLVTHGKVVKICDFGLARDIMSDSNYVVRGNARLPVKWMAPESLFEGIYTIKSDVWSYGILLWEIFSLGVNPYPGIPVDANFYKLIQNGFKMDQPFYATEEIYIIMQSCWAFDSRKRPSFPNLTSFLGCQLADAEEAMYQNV

Assay [2] has as its target FLT3 (Homo sapiens (Human), UniProt P36888). As to the kind of experiment: FLT3 Kinase Test (Z'-LYTE). The class given is biochemical. Here is the method:
FLT3 is obtained from Invitrogen in 50 mM Tris (pH7.5); 100 mM NaCl; 0.05 mM EDTA, 0.05% NP-40, 2 mM DTT; 50% Glycerol # PV3182; Lot 286671; sequence see below). The enzyme is diluted to 720 nM (35 μg/ml) in enzyme dilution buffer and 10 μl aliquots are stored at −80° C.
The activity of FLT3 is measured using the Z′-LYTE™ assay technology from Invitrogen (#PV3191)
The assay is performed in 384 black plates from Corning (#3676) in a final volume of 10 μl by adding 5 μl of kinase peptide mix and 2.5 μl of compound dilution. The reaction is started by addition of 2.5 μl of the 4×ATP solution.
Positive controls are reaction mixtures containing no test compound; negative controls (blanks) are reaction mixtures containing no kinase. As a further control, the phosphopeptide solution is added to wells without kinase (=100% phosphorylation control). The non inhibited kinase reaction will result in a phosphorylation corresponding to 20%-30% of the phosphorylation control.
The reaction is performed for 1 h at room temperature before 5 μl of the development solution is added. After a further incubation for 1 h at room temperature 5 μl of the stop reagent is added. The plates are read on a Flex Station II 384 (Molecular Devices). […]
The output text file is evaluated in an “MS-Excel-VB-Makro” and “GraphPadPrism” (Version 5) (GraphPad Software Inc.) is used to calculate the results. […]

The text below walks through data of patent US10947243B2, “Heteroaryl SYK inhibitors” (Boehringer Ingelheim International GmbH, priority 2014, dated 2021).

Read-outs that look alike come from different tables or passages of the source.

As usually defined, the IC50 is the point on the concentration scale where inhibition reaches its midpoint. Regarding `COc1cc(-c2cc3nn(C)cc3c(O[C@H](C)[C@H]3CNC(=O)C3)n2)ccc1O` [Example 8, (4R)-4-[(1R)-1-[6-(4-Hydroxy-3-methoxy-phenyl)-2-methyl-pyrazolo[4,3-c]pyridin-4-yl]oxyethyl]pyrrolidin-2-one], the IC50 in assay [1] was determined as 0.001 µM. For the compound `C[C@@H](Oc1cc(-c2cscn2)cc2nn(C)cc12)[C@H]1CNC(=O)C1` [Example 29, (4R)-4-[(1R)-1-(2-methyl-6-thiazol-4-yl-indazol-4-yl)oxyethyl]pyrrolidin-2-one], the concentration for half-maximal inhibition (IC50) in assay [1] was 0.002 µM; in assay [2] (read-out: FLT3-inhibition IC50-value) it was 20.6 µM; in assay [2] (read-out: IC50 in μM (FLT3-Inhibition)), 0.315 µM. As for `CCCn1cc(-c2cc(O[C@H](C)[C@H]3CNC(=O)C3)c3cccnc3c2)cn1` [compound 114], the concentration for half-maximal inhibition (IC50) in assay [1] worked out at 0.0002 µM.
